Data as given in patent US20160362460A1 (Pieris, published 2016).

Biological target: Fc-gamma receptor hFcγ RI/CD64 (R&D Systems) (human) (UniProt P12314)
Experiment: SPR, biotinylated binder captured on CAP chip, receptor as analyte, 1:1 fit (kd/ka)

Kd: 0.078 nM
Substance: Reference Molecule 2 (comprising the amino acids shown in SEQ ID NOs: 103 and 104) (antibody; other documents disagree on this pair)
